IC50 data for one compound are collected here from ChEMBL document CHEMBL3425489, “X-ray crystal structures of Escherichia coli RNA polymerase with switch region binding inhibitors enable rational design of squaramides with an improved fraction unbound to human plasma protein” (J Med Chem, 2015).

The nature of this assay: Inhibition of Escherichia coli switch region of RNA polymerase after 1 hr by transcription-coupled translation assay.

One may read the IC50 as the concentration that gives 50% inhibition. A high value points to weaker potency. The compound `CO[C@H]1/C=C/O[C@@]2(C)Oc3c(C)c(O)c4c(O)c(c(/C=N/N5CCN(C)CC5)c(O)c4c3C2=O)NC(=O)/C(C)=C\C=C\[C@H](C)[C@H](O)[C@@H](C)[C@@H](O)[C@@H](C)[C@H](OC(C)=O)[C@@H]1C` [RIFAMPIN] came in with an IC50 of 14 nM. This counts as double-digit nanomolar.
